From article PMC10305189, “Synthesis, Bioactivity and Molecular Docking of Nereistoxin Derivatives Containing Phosphonate” (2023)

Tests used:
Myzus persicae Sulzer = settings: positive control at 40 μg/mL

With `CN1COCN(Cc2cnc(Cl)s2)/C1=N\[N+](=O)[O-]` the “Corrected Mortality Rate (%) M. persicae 24 h” value (Myzus persicae Sulzer; 24 h) was 70.01% and the “Corrected Mortality Rate (%) M. persicae 48 h” value (Myzus persicae Sulzer; 48 h) was 94.12%.
In the case of Flunicotamid, the LC50 (Rhopalosiphum padi; R. padi) is reported as 10.83 µg/mL and the “Corrected Mortality Rate (%) R. padi 48 h” value (Rhopalosiphum padi; positive control at 40 μg/mL, 48 h) is reported as 93.23%.
